# Measurements reported in US20230248660A1, “METHOD OF PREPARING LOXAPINE FILM ORAL DOSAGE FORM” (Intelgenx Corp., priority 2016, published 2023).
# Test system: Porcine buccal mucosa
# Assay: Loxapine diffusion through Porcine buccal mucosa (Franz cell)
# Conditions: film formulation maintained at a neutral pH of from 6 to 8, or 6.5 to 7.5
# Procedure: FIG. 1 graphically depicts 1 oxapine film diffusion through Porcine buccal mucosa (48-hrs-old unfrozen fresh mucosa) (Franz cell 1.76 cm2; 37° C.); saliva pH 6.8.
# FIG. 2 graphically depicts 1 oxapine film diffusion through Porcine buccal mucosa (26-hrs-old unfrozen fresh mucosa) (Franz cell 1.76 cm2; 37° C.); saliva pH 6.8.
# FIG. 3 graphically depicts 1 oxapine Solutions-diffusion through Porcine buccal mucosa (fresh mucosa kept at 4C for 48 hours) (Franz cell 1.76 cm2; 37° C.); saliva pH 6.8.
# These penetration enhancers include sulphoxides (dimethylsulphoxide, decylmethyl sulfoxide), azones (laurocapram), pyrrolidones (2pyrrolidone, 2P), alcohols/alkanols (ethanol or decanol), glycols (propylene glycol), surfactants (anionic, sodium lauryl sulfate, sodium decyl sulfate), (Nonionic, Tween, PLE), (Cationic, chitosan, cetylpyridinium chloride), terpenes (1,8-cineole, menthol, and menthone, D-limonene), fatty acids (oleic acid, sodium caprate), and bile salts (sodium deoxycholate, sodium deoxyglycocholate).
smiles,measurement,value
"CN1CCN(C2=Nc3ccccc3Oc3ccc(Cl)cc32)CC1 [loxapine, 2-chloro-11-(4-methylpiperazin-1-yl) dibenzo[b,f] [1,4] loxazepine]",absorption of loxapine through oral mucosa,significantly enhanced
